{
  "source": "patent US5869449A",
  "about": "“38-decarboxy-38-hydroxymethyl derivatives of teiocoplanin antibiotics and a process for preparing them” (Gruppo Lepetit S.P.A., priority 1990, dated 1999)",
  "experiment": "Acid-base titration (pK MCS)",
  "format": "physicochemical",
  "settings": "methyl cellosolve (MCS) H2O 4/1, excess 0.01M HCl, titrated with 0.01N NaOH; one basic ionizable function",
  "note": "Only a part of the results on these compounds is given; other tests are left out.",
  "data": [
    {"substance": "38-Decarboxy-38-hydroxymethyl deglucoteicoplanin", "values": [
      {"measurement": "pKMCS", "value": 6.6}
    ]}
  ]
}
